In the assay the target is talin H1-H4. The assay is described as follows: ITC; HVD1:A483 equimolar complex in the cell, talin H1-H4 as titrant. In general terms: Isothermal titration calorimetry measures the heat released or taken up as one component is titrated into another.

The chains behind the UniProt entries cited, without tags or fusion partners. Residues count along the entry.
A483:HVD1 complex, UniProt P18206, 1-258 limits assumed: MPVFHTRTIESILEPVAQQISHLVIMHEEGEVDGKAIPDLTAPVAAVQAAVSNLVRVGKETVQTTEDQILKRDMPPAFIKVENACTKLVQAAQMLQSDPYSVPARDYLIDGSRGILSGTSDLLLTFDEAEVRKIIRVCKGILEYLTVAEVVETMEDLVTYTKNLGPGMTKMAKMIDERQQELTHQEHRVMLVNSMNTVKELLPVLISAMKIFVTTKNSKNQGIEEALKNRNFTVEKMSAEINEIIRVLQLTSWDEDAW

“A483:HVD1 complex (from UniProt P18010 483-633; P18206 1-258)” yielded an equilibrium dissociation constant (Kd) of 2940 nM. That is a single-digit micromolar value.

By Kd is commonly meant the free concentration of one partner at which half of the binding sites on the other are occupied at equilibrium, for simple one-to-one binding.

The values above are taken from patent US20180264072A1.
